Publication PMC7595425 (PLoS ONE, 2020)

Protein sequences, listed by entry. Tags and fused reporters are not part of them.
UniProt P08183, whole entry: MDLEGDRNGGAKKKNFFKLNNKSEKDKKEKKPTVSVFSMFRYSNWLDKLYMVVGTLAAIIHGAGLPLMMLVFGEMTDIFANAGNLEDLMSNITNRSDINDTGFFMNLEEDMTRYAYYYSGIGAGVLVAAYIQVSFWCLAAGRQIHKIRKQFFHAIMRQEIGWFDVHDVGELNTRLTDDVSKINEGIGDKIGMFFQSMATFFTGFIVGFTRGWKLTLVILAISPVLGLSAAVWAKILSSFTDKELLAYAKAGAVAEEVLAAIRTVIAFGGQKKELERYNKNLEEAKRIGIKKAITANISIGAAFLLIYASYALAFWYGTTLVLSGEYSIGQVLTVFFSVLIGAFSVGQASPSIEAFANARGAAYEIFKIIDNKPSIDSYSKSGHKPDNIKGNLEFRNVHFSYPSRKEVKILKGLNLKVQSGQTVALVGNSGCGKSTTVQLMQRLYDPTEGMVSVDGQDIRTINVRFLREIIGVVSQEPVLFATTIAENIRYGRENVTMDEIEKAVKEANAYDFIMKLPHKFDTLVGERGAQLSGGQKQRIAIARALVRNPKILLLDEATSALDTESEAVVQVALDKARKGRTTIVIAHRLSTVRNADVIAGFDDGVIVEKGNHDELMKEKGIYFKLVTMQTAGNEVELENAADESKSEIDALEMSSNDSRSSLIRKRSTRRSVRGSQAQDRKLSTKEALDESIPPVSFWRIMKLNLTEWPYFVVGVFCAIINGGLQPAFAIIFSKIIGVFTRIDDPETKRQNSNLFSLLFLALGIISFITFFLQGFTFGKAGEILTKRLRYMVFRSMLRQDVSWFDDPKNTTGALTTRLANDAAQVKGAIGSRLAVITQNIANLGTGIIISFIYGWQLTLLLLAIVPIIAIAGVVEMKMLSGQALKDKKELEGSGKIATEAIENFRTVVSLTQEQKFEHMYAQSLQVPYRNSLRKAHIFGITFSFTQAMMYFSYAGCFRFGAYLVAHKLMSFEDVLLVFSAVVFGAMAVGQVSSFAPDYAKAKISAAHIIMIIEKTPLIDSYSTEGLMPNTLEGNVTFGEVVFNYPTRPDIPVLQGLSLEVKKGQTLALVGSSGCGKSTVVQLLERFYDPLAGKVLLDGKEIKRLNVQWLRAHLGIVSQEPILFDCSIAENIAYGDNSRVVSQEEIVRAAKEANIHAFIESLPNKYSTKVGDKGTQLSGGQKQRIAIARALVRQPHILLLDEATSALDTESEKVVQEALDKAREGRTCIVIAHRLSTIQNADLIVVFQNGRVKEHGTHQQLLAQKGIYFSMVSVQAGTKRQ

Columns and labels:
P-gp [1] = molecular target: T1, P-gp (Homo sapiens, UniProt P08183); conditions: pimozide 0.01 to 100 μM; mean ± S.D.
Caco-2 cell monolayers = assay: Bidirectional assay across Caco-2 cell monolayers; conditions: substrate alone, 10 μM, mean ± S.E.M.
P-gp [2] = molecular target: T1, P-gp; assay: Bidirectional assay across LLC-GA5-CoL150 cell monolayers; conditions: substrate alone, 10 μM; mean ± S.E.M.

kd (first-order rate constant) (P-gp [1]): 0.67 ± 0.14 pmol/min/mg protein
Efflux Ratio (Caco-2 cell monolayers): 0.21±0.01
Efflux Ratio (Caco-2 cell monolayers; listed as pimozide): less than 1
Efflux Ratio (P-gp [2]): 3.62 ± 1.04
Structure (SMILES): O=c1[nH]c2ccccc2n1C1CCN(CCCC(c2ccc(F)cc2)c2ccc(F)cc2)CC1 [Pimozide]
